# Assay results from patent US20230346796A1 (priority 2010, published 2023).
# Test system: healthy volunteers and patients undergoing a colonoscopy
# Assay: CNS 7056-fentanyl interaction MOAA/S pharmacodynamic analysis
# [1] = CNS7056FEN08S, stimuli 1 / 2 min
# [2] = CNS7056FEN09S, stimuli 1 / 2 min
# [3] = CNS7056FEN12S, stimuli 1 / 2 min
# [4] = CNS7056FEN13S, stimuli 1 / 2 min
smiles,measurement,setting,value
"COC(=O)CC[C@@H]1N=C(c2ccccn2)c2cc(Br)ccc2-n2c(C)cnc21 [CNS 7056, 3-[(4S)-8-bromo-1-methyl-6-(2-pyridinyl)-4H-imidazo[1,2-a][1,4]benzodiazepin-4-yl] propionic methyl ester]","ke0, eta IIV (RSE%)",CNS7056FEN01AS,35.07 (18.2) %
same,"EC50, theta (RSE%)","CNS7056FEN01AS, basic model",0.349 (4.38) µg/ml
same,"Hill Coefficient, theta (RSE%)","CNS7056FEN01AS, basic model",3.9 (6.87)
same,"ke0, theta (RSE%)","CNS7056FEN01AS, basic model",14.8 (5.08) h^-1
same,"EC50, eta IIV (RSE%)",CNS7056FEN03S,36.48 (--- ) %
same,"Hill Coefficient, eta IIV (RSE%)",CNS7056FEN03S,55.43 (--- ) %
same,"Hill Coefficient, theta (RSE%)",CNS7056FEN03S,3.88 (--- )
same,"ke0, eta IIV (RSE%)",CNS7056FEN03S,35.07 (--- ) %
same,"ke0, theta (RSE%)",CNS7056FEN03S,15 (--- ) h^-1
same,"EC50, theta (RSE%)","CNS7056FEN03S, fentanyl effect added",0.348 (--- ) µg/ml
same,"EC50, eta IIV (RSE%)",CNS7056FEN04S,36.48 (16.0) %
same,"Hill Coefficient, eta IIV (RSE%)",CNS7056FEN04S,58.80 (25.1) %
same,"Hill Coefficient, theta (RSE%)",CNS7056FEN04S,4.08 (7.15)
same,"ke0, eta IIV (RSE%)",CNS7056FEN04S,32.36 (16.7) %
same,"ke0, theta (RSE%)",CNS7056FEN04S,15.1 (4.78) h^-1
same,"EC50, theta (RSE%)","CNS7056FEN04S, scope effect, Conc.-EQ. 0.00",0.342 (4.44) µg/ml
same,"EC50, eta IIV (RSE%)",CNS7056FEN05S,35.54 (15.8) %
same,"Hill Coefficient, eta IIV (RSE%)",CNS7056FEN05S,60.39 (25.4) %
same,"Hill Coefficient, theta (RSE%)",CNS7056FEN05S,4.24 (7.52)
same,"ke0, eta IIV (RSE%)",CNS7056FEN05S,31.39 (16.5) %
same,"ke0, theta (RSE%)",CNS7056FEN05S,14.4 (4.57) h^-1
same,"EC50, theta (RSE%)","CNS7056FEN05S, fentanyl and scope effect",0.346 (4.30) µg/ml
same,"Conc.-EQ. (fentanyl concentration-equivalence factor), theta (RSE%)",CNS7056FEN06S,23.7 (30.7)
same,"Conc.-EQ., eta IIV (RSE%)",CNS7056FEN06S,162.2 (82.6)
same,"EC50, eta IIV (RSE%)",CNS7056FEN06S,35.54 (16.0) %
same,"Hill Coefficient, eta IIV (RSE%)",CNS7056FEN06S,61.52 (25.5) %
same,"Hill Coefficient, theta (RSE%)",CNS7056FEN06S,4.4 (5.97)
same,"ke0, eta IIV (RSE%)",CNS7056FEN06S,32.12 (16.8) %
same,"ke0, theta (RSE%)",CNS7056FEN06S,13.9 (4.70) h^-1
same,"EC50, theta (RSE%)","CNS7056FEN06S, IIV on Conc.-EQ.",0.348 (4.39) µg/ml
same,"EC50, eta IIV (RSE%)",CNS7056FEN07S,35.86 (15.7) %
same,"Hill Coefficient (γ), eta IIV (RSE%)",CNS7056FEN07S,51.09 (22.1) %
same,"ke0, eta IIV (RSE%)",CNS7056FEN07S,32.43 (16.8) %
same,"EC50, theta (RSE%)","CNS7056FEN07S, stimuli 1 min",0.336 (4.28) µg/ml
same,"Hill Coefficient (γ), theta (RSE%)","CNS7056FEN07S, stimuli 1 min",4 (2.6)
same,"ke0, theta (RSE%)","CNS7056FEN07S, stimuli 1 min",14.2 (4.66) h^-1
same,"EC50, eta IIV (RSE%)",CNS7056FEN08S,35.70 (15.8) %
same,"Hill Coefficient (γ), eta IIV (RSE%)",CNS7056FEN08S,47.95 (20.9) %
same,"ke0, eta IIV (RSE%)",CNS7056FEN08S,31.51 (16.1) %
same,"EC50, theta (RSE%)",[1],0.328 (4.48) µg/ml
same,"Hill Coefficient (γ), theta (RSE%)",[1],3.96 (6.18)
same,"ke0, theta (RSE%)",[1],13.7 (4.30) h^-1
same,"EC50, eta IIV (RSE%)",CNS7056FEN09S,34.42 (15.9) %
same,"Hill Coefficient (γ), eta IIV (RSE%)",CNS7056FEN09S,52.20 (22.7) %
same,"ke0, eta IIV (RSE%)",CNS7056FEN09S,28.25 (15.0) %
same,"Conc.-EQ. (fentanyl concentration-equivalence factor), theta (RSE%)",[2],41.3 (7.21)
same,"EC50, theta (RSE%)",[2],0.331 (4.16) µg/ml
same,"Hill Coefficient (γ), theta (RSE%)",[2],4.43 (6.41)
same,"ke0, theta (RSE%)",[2],12.8 (4.02) h^-1
same,"Conc.-EQ. (fentanyl concentration-equivalence factor), theta (RSE%)",CNS7056FEN10S,33.1 (29.2)
same,"Conc.-EQ., eta IIV (RSE%)",CNS7056FEN10S,184.1 (91.1)
same,"EC50, eta IIV (RSE%)",CNS7056FEN10S,34.74 (16.0) %
same,"EC50, theta (RSE%)",CNS7056FEN10S,0.333 (4.50) µg/ml
same,"Hill Coefficient, eta IIV (RSE%)",CNS7056FEN10S,55.20 (24.6) %
same,"Hill Coefficient, theta (RSE%)",CNS7056FEN10S,4.6 (7.32)
same,"ke0, eta IIV (RSE%)",CNS7056FEN10S,32.93 (16.2) %
same,"ke0, theta (RSE%)",CNS7056FEN10S,12.5 (5.00) h^-1
same,"Conc.-EQ. (fentanyl concentration-equivalence factor), theta (RSE%)",CNS7056FEN11S,33.2 (8.37)
same,"EC50, eta IIV (RSE%)",CNS7056FEN11S,33.77 (15.7) %
same,"EC50, theta (RSE%)",CNS7056FEN11S,0.328 (4.26) µg/ml
same,"Hill Coefficient, eta IIV (RSE%)",CNS7056FEN11S,54.61 (24.3) %
same,"Hill Coefficient, theta (RSE%)",CNS7056FEN11S,4.41 (7.30)
same,"ke0, eta IIV (RSE%)",CNS7056FEN11S,28.95 (15.8) %
same,"ke0, theta (RSE%)",CNS7056FEN11S,12.9 (4.20) h^-1
same,"EC50, eta IIV (RSE%)",CNS7056FEN12S,36.17 (16.3) %
same,"Hill Coefficient (γ), eta IIV (RSE%)",CNS7056FEN12S,49.35 (21.9) %
same,"ke0, eta IIV (RSE%)",CNS7056FEN12S,29.25 (15.2) %
same,"EC50, theta (RSE%)",[3],0.323 (4.42) µg/ml
same,"Hill Coefficient (γ), theta (RSE%)",[3],4.11 (6.54)
same,"ke0, theta (RSE%)",[3],14.1 (4.19) h^-1
same,"EC50, eta IIV (RSE%)",CNS7056FEN13S,35.07 (16.1) %
same,"Hill Coefficient (γ), eta IIV (RSE%)",CNS7056FEN13S,54.25 (23.7) %
same,"ke0, eta IIV (RSE%)",CNS7056FEN13S,30.47 (15.9) %
same,"EC50, theta (RSE%)",[4],0.321 (4.33) µg/ml
same,"Hill Coefficient (γ), theta (RSE%)",[4],4.18 (7.03)
same,"ke0, theta (RSE%)",[4],13.9 (4.51) h^-1
same,"Conc.-EQ. (fentanyl concentration-equivalence factor), theta (RSE%)",CNS7056FEN14S,30.3 (28.8)
same,"Conc.-EQ., eta IIV (RSE%)",CNS7056FEN14S,200.0 (78.2)
same,"EC50, eta IIV (RSE%)",CNS7056FEN14S,33.93 (6.97) %
same,"EC50, theta (RSE%)",CNS7056FEN14S,0.331 (2.35) µg/ml
same,"Hill Coefficient, eta IIV (RSE%)",CNS7056FEN14S,57.88 (15.0) %
same,"Hill Coefficient, theta (RSE%)",CNS7056FEN14S,4.64 (2.15)
same,"ke0, eta IIV (RSE%)",CNS7056FEN14S,32.76 (8.85) %
same,"ke0, theta (RSE%)",CNS7056FEN14S,12.4 (1.52) h^-1
same,"Conc.-EQ. (fentanyl concentration-equivalence factor), theta (RSE%)",CNS7056FEN18S,38.3 (7.72)
same,"EC50, eta IIV (RSE%)",CNS7056FEN18S,34.91 (15.3) %
same,"EC50, theta (RSE%)",CNS7056FEN18S,0.331 (4.44) µg/ml
same,"Hill Coefficient, eta IIV (RSE%)",CNS7056FEN18S,56.49 (23.3) %
same,"Hill Coefficient, theta (RSE%)",CNS7056FEN18S,4.56 (7.12)
same,"ke0, eta IIV (RSE%)",CNS7056FEN18S,29.13 (15.0) %
same,"ke0, theta (RSE%)",CNS7056FEN18S,12.9 (3.89) h^-1
same,"Conc.-EQ. (fentanyl concentration-equivalence factor), theta (RSE%)",CNS7056FEN19S,28.2 (30.6)
same,"Conc.-EQ., eta IIV (RSE%)",CNS7056FEN19S,214.1 (113.00)
same,"EC50, eta IIV (RSE%)",CNS7056FEN19S,35.23 (14.1) %
same,"EC50, theta (RSE%)",CNS7056FEN19S,0.333 (4.71) µg/ml
same,"Hill Coefficient, eta IIV (RSE%)",CNS7056FEN19S,59.03 (25.8) %
same,"Hill Coefficient, theta (RSE%)",CNS7056FEN19S,4.69 (6.09)
same,"ke0, eta IIV (RSE%)",CNS7056FEN19S,34.09 (15.5) %
same,"ke0, theta (RSE%)",CNS7056FEN19S,12.6 (4.36) h^-1
same,"Fentanyl concentration-equivalence, eta IIV (RSE%)",CNS7056FEN26S,192.6 (59.3)
same,"Hill Coefficient, eta IIV (RSE%)",CNS7056FEN26S,77.04 (20.4)
same,"ke0, theta (RSE%)",CNS7056FEN26S,12.1 (0.91) h^-1
same,"EC50, theta (RSE%)","CNS7056FEN26S, zero scores changed to -1.30",0.380 (0.94) µg/ml
same,"EMAX, fitted theta (RSE%)",CNS7056FEN31S,4.84 (0.15)
same,"EMIN, fitted theta (RSE%)",CNS7056FEN31S,-1.57 (2.99)
same,"Fentanyl concentration-equivalence, theta (RSE%)",CNS7056FEN31S,40.1 (6.28)
same,"Hill Coefficient, eta IIV (RSE%)",CNS7056FEN31S,75.07 (23.0)
same,"Hill Coefficient, theta (RSE%)",CNS7056FEN31S,5.04 (4.12)
same,"ke0, theta (RSE%)",CNS7056FEN31S,12.2 (1.01) h^-1
same,"EC50, theta (RSE%)","CNS7056FEN31S, zero scores changed to -1.30",0.378 (1.51) µg/ml
